Values quoted from earlier work in publication PMC5995653 (Journal of pharmacological and toxicological methods, 2018).

Sequences of proteins named here, by UniProt entry; tags and fusion partners are left off.
UniProt P31652, whole entry: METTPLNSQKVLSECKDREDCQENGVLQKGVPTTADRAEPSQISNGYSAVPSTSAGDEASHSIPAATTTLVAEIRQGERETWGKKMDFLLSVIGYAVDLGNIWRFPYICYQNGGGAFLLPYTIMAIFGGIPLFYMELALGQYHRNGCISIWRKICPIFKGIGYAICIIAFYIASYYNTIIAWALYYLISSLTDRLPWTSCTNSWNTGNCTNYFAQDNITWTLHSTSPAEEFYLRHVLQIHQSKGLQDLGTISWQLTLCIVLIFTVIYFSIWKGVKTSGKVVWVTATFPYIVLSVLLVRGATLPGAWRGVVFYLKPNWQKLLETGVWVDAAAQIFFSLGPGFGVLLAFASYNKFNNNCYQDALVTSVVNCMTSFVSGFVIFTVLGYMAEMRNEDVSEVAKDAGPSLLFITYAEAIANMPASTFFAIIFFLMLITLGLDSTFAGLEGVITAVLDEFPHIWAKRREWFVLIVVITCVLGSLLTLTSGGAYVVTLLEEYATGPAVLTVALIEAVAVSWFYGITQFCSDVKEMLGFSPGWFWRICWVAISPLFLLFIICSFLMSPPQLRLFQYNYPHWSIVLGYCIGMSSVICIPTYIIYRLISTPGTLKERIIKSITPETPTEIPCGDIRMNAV

Molecular target: rSERT (Rattus norvegicus, UniProt P31652)
Settings: read-out: Reuptake inhibition activity IC50, rSERT, synaptosomes; cited from earlier work

## c1ccc(CCCN2CCN(CCOC(c3ccccc3)c3ccccc3)CC2)cc1 [GBR12935]
  IC50: 289 ± 29 nM
